The text below walks through data of PubChem BioAssay (NCATS).

Sequences of proteins named here, by UniProt entry; tags and fusion partners are left off.
UniProt P01375, whole entry: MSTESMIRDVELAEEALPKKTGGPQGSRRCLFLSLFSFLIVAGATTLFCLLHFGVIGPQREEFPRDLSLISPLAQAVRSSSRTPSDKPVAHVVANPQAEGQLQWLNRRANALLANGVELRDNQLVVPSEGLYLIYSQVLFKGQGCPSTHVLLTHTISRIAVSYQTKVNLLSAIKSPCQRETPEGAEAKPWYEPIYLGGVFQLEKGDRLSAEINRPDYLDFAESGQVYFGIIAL
UniProt Q07869, whole entry: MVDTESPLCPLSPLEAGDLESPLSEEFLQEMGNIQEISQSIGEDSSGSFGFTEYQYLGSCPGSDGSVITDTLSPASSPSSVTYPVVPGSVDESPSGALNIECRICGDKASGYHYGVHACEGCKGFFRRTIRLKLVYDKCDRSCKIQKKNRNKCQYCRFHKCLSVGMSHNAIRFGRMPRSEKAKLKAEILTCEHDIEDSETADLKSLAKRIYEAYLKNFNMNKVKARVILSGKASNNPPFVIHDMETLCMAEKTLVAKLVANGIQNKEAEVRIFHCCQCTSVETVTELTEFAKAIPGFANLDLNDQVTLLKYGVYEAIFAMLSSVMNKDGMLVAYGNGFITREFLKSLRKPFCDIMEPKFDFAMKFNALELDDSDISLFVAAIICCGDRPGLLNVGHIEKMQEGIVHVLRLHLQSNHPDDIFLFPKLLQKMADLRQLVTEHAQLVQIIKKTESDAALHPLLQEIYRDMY
UniProt P51449, whole entry: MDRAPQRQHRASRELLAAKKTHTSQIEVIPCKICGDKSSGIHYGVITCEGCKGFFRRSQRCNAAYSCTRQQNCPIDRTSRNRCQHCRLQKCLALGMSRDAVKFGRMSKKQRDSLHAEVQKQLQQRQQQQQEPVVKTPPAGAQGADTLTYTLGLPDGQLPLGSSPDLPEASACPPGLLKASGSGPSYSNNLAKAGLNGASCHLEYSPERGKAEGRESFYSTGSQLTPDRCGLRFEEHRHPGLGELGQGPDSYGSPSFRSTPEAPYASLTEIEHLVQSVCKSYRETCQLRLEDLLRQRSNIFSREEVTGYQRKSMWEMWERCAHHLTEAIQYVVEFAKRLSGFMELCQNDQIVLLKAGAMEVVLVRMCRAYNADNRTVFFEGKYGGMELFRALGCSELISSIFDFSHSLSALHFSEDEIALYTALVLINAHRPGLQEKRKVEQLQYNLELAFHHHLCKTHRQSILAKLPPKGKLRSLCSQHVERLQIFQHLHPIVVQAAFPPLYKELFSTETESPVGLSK
UniProt O94925, whole entry: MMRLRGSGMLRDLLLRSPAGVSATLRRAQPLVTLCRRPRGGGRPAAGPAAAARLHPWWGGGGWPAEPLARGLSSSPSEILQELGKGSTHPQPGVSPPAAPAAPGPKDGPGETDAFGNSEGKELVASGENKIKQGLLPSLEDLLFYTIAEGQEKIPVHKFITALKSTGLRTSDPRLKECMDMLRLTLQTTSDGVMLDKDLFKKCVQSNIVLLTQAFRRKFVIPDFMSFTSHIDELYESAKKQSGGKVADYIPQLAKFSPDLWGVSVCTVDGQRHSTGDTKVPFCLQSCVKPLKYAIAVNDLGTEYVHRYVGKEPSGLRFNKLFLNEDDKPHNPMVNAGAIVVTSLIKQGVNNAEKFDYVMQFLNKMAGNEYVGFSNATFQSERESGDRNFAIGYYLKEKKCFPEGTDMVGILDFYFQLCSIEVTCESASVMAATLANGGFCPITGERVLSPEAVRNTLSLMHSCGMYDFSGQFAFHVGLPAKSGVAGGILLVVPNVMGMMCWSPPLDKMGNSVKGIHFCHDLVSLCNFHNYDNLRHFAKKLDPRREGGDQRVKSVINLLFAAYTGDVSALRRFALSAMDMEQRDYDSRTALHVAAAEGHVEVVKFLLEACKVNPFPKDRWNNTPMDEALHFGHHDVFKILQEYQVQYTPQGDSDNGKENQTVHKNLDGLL
UniProt P43220, whole entry: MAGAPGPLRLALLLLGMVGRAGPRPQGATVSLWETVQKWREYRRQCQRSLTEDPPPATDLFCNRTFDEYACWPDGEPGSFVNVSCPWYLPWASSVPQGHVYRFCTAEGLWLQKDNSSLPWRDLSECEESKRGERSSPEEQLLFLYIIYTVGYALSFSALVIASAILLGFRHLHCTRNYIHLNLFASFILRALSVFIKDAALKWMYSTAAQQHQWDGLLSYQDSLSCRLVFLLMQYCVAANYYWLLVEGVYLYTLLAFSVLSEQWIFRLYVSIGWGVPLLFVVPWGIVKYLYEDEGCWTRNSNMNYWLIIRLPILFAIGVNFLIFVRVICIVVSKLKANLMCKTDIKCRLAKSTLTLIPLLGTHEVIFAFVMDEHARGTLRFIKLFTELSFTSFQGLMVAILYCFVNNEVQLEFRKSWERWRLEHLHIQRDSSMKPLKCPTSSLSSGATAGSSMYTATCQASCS

Values joined by “and” are separate entries in the source; they are usually repeats but may differ in a detail not shown here. Equal values may be shown once. The list shows a part of the results, in another mix than the full data. Inconclusive results are not listed. For some assays here: Measured potencies and affinities stand elsewhere. Active and inactive are the calls of the source. Unless noted, calls follow the shape of the dose curve; as a rule, active = well fitted curve in the direction sought with a large enough effect; inconclusive = small, poorly fitted or top-dose-only effect, or another doubt; inactive = no such curve, though single readings can be large; an effect the other way counts as inactive or inconclusive.

Experiment [1] can be described thus: qHTS assay for small molecule agonists of the antioxidant response element (ARE) signaling pathway (AID 651741; active = well fitted activation curve with a large enough effect in the signal ratio; the % refers to the signal ratio; also: potency is read from the fitted curve at half-maximal effect; as to activation: % of control where 0% means no effect). Conditions: HepG2 ARE-bla reporter, beta-lactamase FRET ratio, 16 h; series mostly up to 96 µM. In outline: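 Reporter: beta-lactamase under ARE, stably in HepG2. Exposure: 16 h, 37 C, compounds delivered in DMSO by pin tool after 5 h cell preincubation. Readout: FRET substrate fluorescence after 2 h at RT.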

The nature of experiment [2]: qHTS assay for small molecule activators of the p53 signaling pathway (AID 651743; active = well fitted activation curve with a large enough effect in the signal ratio, not every such curve was filed as active; the % refers to the signal ratio; also: % of control where 0% means no effect). Conditions: HCT-116 p53RE-bla, beta-lactamase FRET ratio, 16 h; hits give high values. In outline:
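Agonist-mode quantitative HTS in HCT-116 cells carrying a p53-response-element beta-lactamase reporter; 16 h compound treatment at 37 C, then FRET substrate loading for 2 h at room temperature and fluorescence read.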

Experiment [3] in a line: qHTS assay for small molecule activators of the nuclear factor-kappa B (NF-kB) signaling pathway (AID 651749; active = well fitted activation curve with a large enough effect in the signal ratio; the % refers to the signal ratio; also: % of control where 0% means no effect). Conditions: NF-kB-bla ME-180 cells, beta-lactamase FRET ratio, 16 h; hits give high values. In outline: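 Human ME-180 cervical cells with an NF-kB-bla construct; compounds added via 23 nL pin transfer, DMSO as vehicle; incubation 16 hr. Reporter activity measured by FRET disruption.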

The nature of experiment [4]: qHTS assay for small molecule disruptors of the mitochondrial membrane potential - 1 hr assay (AID 651754; calls by dose curve; also: % is scaled to controls: 0 for no effect and ±100 for the full control effect; nearly all actives have a fitted effect of over 35% in size). Conditions: HepG2 mitochondrial membrane potential, JC-1 ratio 590/535, 1 h; at 92.2 µM (top of the series). In outline: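 Mitochondrial potential in living HepG2 cells after 1 hr compound treatment at 37C was read with Mito-MPS dye added for a further 30 min. Red aggregate and green monomer fluorescence were measured; loss of potential leaves dye as cytoplasmic monomers.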

The nature of experiment [5]: qHTS assay for small molecule disruptors of the mitochondrial membrane potential - 5 hr assay (AID 651755; calls by dose curve; also: % is scaled to controls: 0 for no effect and ±100 for the full control effect; nearly all actives have a fitted effect of over 40% in size). Conditions: JC-1-type ratio dye; at 92.2 µM (top of the series).
In experiment [6] the target is Tumor necrosis factor (Homo sapiens) (UniProt P01375). In words: qHTS assay to identify small molecules that stimulate Tumor Necrosis Factor-alpha (TNF-alpha) secretion (AID 651757; active = well fitted curve in the direction sought with a large enough effect in the signal ratio; the % refers to the signal ratio; also: 0% is about no effect). Conditions: Human cells, HTRF 665/615 ratio; at 92.2 µM (top of the series). The method in brief:
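Secreted TNF-alpha quantified by TR-FRET sandwich of two labeled anti-TNF-alpha antibodies, incubated 3 hr at room temperature. Preceded by 17 hr, 37 C compound treatment of THP-1 cells at 3000 cells/well.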

The nature of experiment [7]: qHTS assay to identify small molecules that stimulate interleukin-8 (IL-8) secretion (AID 651758; active = well fitted activation curve with a large enough effect in the signal ratio; the % refers to the signal ratio; also: 0% is about no effect). Conditions: HTRF ratio (665/615); series mostly up to 92.2 µM. In outline: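 Quantitative HTS in THP-1 monocytic cells at 2000 cells per well, with 16 hrs compound incubation at 37 C. IL-8 in the medium was then quantified by HTRF immunoassay, read after 1-3 hrs at room temperature.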

Experiment [8] is described as follows: qHTS assay for environmental chemicals that activate the Aryl hydrocarbon Receptor (AhR) signaling pathway (AID 651777). Also: % of control where 0% means no effect; nearly all actives have a fitted effect of over 15% in size. Conditions: 1A2-DRE human hepatoma cells, luciferase, 24 h; hits give high values. In outline: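 Concentration–response screening used 1,200 1A2-DRE cells per well, 24 hr compound exposure (37 C, 5% CO2), and One-Glo luminescence as the AhR-driven CYP1A2 reporter signal.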

Experiment [9] deals with Peroxisome proliferator-activated receptor alpha (Homo sapiens) (UniProt Q07869). The experiment in a line: qHTS assay for small molecule agonists of the peroxisome proliferator-activated receptor alpha (PPARalpha) signaling pathway (AID 651778). Also: % of control where 0% means no effect. Conditions: PathHunter PPARalpha complementation, chemiluminescence, 6 h; hits give high values. In outline:
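Cells plated at 2,000/well and held overnight at 37 C, 5% CO2, then compound added by pin tool for 6 hr; after PathHunter detection reagent and 60 min at room temperature, chemiluminescence from enzyme complementation was read.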

For experiment [10], the target named is Nuclear receptor ROR-gamma (Homo sapiens) (UniProt P51449). In words: qHTS assay for small molecule antagonists of the retinoid-related orphan receptor gamma (ROR-gamma) signaling pathway (AID 651802).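 Also: CHO cells with doxycycline-induced ROR-gamma expression; luciferase reporter luminescence driven by ROR response element; % is scaled to controls: 0 for no effect and ±100 for the full control effect; nearly all actives have a fitted effect of over 60% in size.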 Conditions: ROR-gamma antagonist cell reporter assay; series mostly up to 92.2 µM.
The nature of experiment [11]: qHTS assay for small molecule agonists of the antioxidant response element (ARE) signaling pathway measured by Nrf2-dependant transcriptional activity (AID 720636; active = well fitted curve in the direction sought with a large enough effect in the repeat runs; an effect the other way counts as inactive or inconclusive; also: % of control where 0% means no effect). Conditions: ARE-luc HepG2, Nrf2 luciferase reporter, 16 h; at 92.4 µM (top of the series). In outline:
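Attachment 6 hr at 37 C, then compound versus DMSO vehicle for 16 hr in ARE-luc HepG2 cells (1% dialyzed FBS); luminescence recorded 30 min after ONE-Glo addition at room temperature.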

Experiment [12] in a line: qHTS assay for small molecule antagonists of the retinoid-related orphan receptor gamma (ROR-gamma) signaling pathway - cell viability counter screen (AID 720652; active = well fitted curve in the direction sought with a large enough effect in the repeat runs; an effect the other way counts as inactive or inconclusive;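 also: CHO reporter cells with doxycycline-induced ROR-gamma expression; compound exposure lasted 16 hr before ATP read; % is scaled to controls: 0 for no effect and ±100 for the full control effect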). Conditions: RORgamma reporter cell line viability counter screen; at 92.2 µM (top of the series).
Experiment [13] is described as follows: S16 Schwann cell viability assay (CellTiter-Glo assay) (AID 624031).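 Also: native untransfected S16 rat Schwann cells; cellular ATP luminescence as a viability measure; plate controls were DMSO-treated cells for no effect and cell-free wells for full effect; nearly all actives have a fitted effect of over 70% in size.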 Conditions: S16 rat Schwann cells viability, 24 h; at 57.5 µM (top of the series) unless noted. The method in brief:
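Following overnight culture in 10% FBS DMEM, parental S16 rat Schwann cells are dosed for 24 h at 37 °C. Viability is read as CellTiter-Glo luminescence and expressed as % activity relative to DMSO (0%) and no-cell wells.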

Experiment [14] is described as follows: S16 Schwann cell PMP22 intronic element firefly luciferase assay (AID 624032). Also: nearly all actives have a fitted effect of over 30% in size. Also: potency is read from the fitted curve at half-maximal effect.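 As to activity change, negative = inhibition: plate controls were DMSO for no effect and PTC124 positive control mean for full effect.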 Conditions: S16 rat Schwann cells, PMP22 element FLuc, 24 h; series mostly up to 57.5 µM.
Experiment [15] is described as follows: S16 Schwann cell PMP22 intronic element beta-lactamase assay (AID 624044; calls by dose curve;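 also: 0% = DMSO and -100% = potassium clavulanate positive control; nearly all actives have a fitted effect of over 15% in size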). Conditions: S16 rat Schwann cells, PMP22 element beta-lactamase FRET, 24 h; at 38.3 µM (top of the series) unless noted.
Experiment [16] concerns the target Glutaminase kidney isoform, mitochondrial (Homo sapiens) (UniProt O94925). The experiment in a line: qHTS for Inhibitors of Glutaminase (GLS): LOPAC Validation (AID 624146).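 Also: glutamate product detected by oxidase and peroxidase coupled Amplex red fluorescence gain; % is scaled to controls: 0 for no effect and ±100 for the full control effect; nearly all actives have a fitted effect of over 60% in size.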 Conditions: glutaminase enzyme activity inhibition; at 46.1 µM (top of the series). The method in brief: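 hKGA; 45 mM KH2PO4 pH 8.2 + 0.02% Tween-20; cpd via pin tool; 1 mM Gln soln; GluOx/HRP/Amplex Red; RT 30 min; fluor. t0 & final.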

Experiment [17] addresses Glucagon-like peptide 1 receptor (Homo sapiens) (UniProt P43220). The experiment in a line: qHTS of GLP-1 Receptor Agonists: LOPAC Validation (AID 624148).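 Also: 0% is about no effect; higher luminescence signal means agonism.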 Conditions: GLP-1R agonist cell assay; at 46.1 µM (top of the series). The method in brief: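 HEK293 cells stably co-expressing a cAMP-responsive luciferase reporter and a hypersensitive GLP-1R were plated 12 h at 37 °C and exposed to compounds for 4-6 hr at 37 °C, 5% CO2. Luminescence was read 12 min after adding detection reagent.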

Experiment [18] can be described thus: HTS Assay for Allosteric Antagonists of the Human D2 Dopamine Receptor: Hit Validation in HTRF (AID 624455).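 Also: stable D1 dopamine receptor cell line scored for blocking the D1 response; % is scaled to controls: 0 for no effect and ±100 for the full control effect.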 Conditions: D2 receptor cells, HTRF cAMP read-out, antagonist mode; at 46.1 µM (top of the series). In outline: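 Inhibition of the D1-mediated response was measured by HTRF. Cells used were a line stably expressing the D1 dopamine receptor.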
Experiment [19] is described as follows: qHTS for compounds that reverse cellular toxicity of Amyloid beta (A-beta) peptide in yeast: LOPAC Validation Assay (AID 720559).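 Also: plate controls were DMSO for no effect and equimolar ferric chloride plus clioquinol rescue for full effect.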 Conditions: yeast expressing A-beta; at 46.1 µM (top of the series). In outline: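 Yeast cells expressing toxic A-beta were combined with pinned compounds in growth medium and incubated 48 hr at 30 C. Growth was read as absorbance at 600 nm and normalized to DMSO and to an equimolar FeCl3/clioquinol positive control.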

On to `CCOP(=O)(CC)OCC`, for which the Potency entry in [1], in experiment [7] and in experiment [10] was “inactive” throughout. Also, the activation is inactive: -2.09% in [2], inactive: 0.0333% in experiment [3], inactive: 0.285% in experiment [8] and inactive: -0.929% in experiment [11]. Further, the ratio change, negative = depolarisation in experiment [4] was inactive: -1.86%. In addition, the ratio change, negative = disruption in [5] was inactive: -1.14%. Further, the activation (TNF-alpha secretion) in [6] was inactive: -0.113%. Further, the max response in experiment [9] is inactive: -5.88%. In experiment [12], the activity change, negative = cytotoxicity is inactive: -0.856%.

For the molecule `CN(N=O)C(=N)N[N+](=O)[O-]`, in experiment [4], the ratio change, negative = depolarisation is inactive: 1.02%. In experiment [5], the ratio change, negative = disruption was inactive: 0.296%.

For `Cc1ccc([N+](=O)[O-])cc1[N+](=O)[O-]`, in experiment [1], the Potency was active: 54.5 µM. The activation is inactive: -2.97% and inactive: -3.75% in [2]; inactive: -1.91% and inactive: -0.703% in [3]; inactive: 1.41% and inactive: 1.24% in [8]; inactive: -0.002% and inactive: 1.32% in experiment [11]. For the same molecule, in experiment [4], the ratio change, negative = depolarisation was inactive: -12.5%. For the same molecule, in experiment [5], the ratio change, negative = disruption is inactive: -5.34%. Besides, the activation (TNF-alpha secretion) in experiment [6] is inactive: -0.063%. For the same molecule, the max response in experiment [9] was inactive: -2.32% and inactive: -0.547%. Further, the Potency entry in [10] was “inactive”. Further, the activity change, negative = cytotoxicity in [12] was inactive: 7.94%.

As to `OCCSCCO`, the activity change, negative = cytotoxicity in experiment [13] was inactive: -18%. The Potency entry in [14] was “inactive”. Further, the ratio activity, negative = inhibition in [15] is inactive: 2.47%.

On to `NC(=O)Nc1ccc([As](=O)(O)O)cc1`, for which the ratio activity, negative = inhibition in [15] was inactive: -0.651%.

As for `N#[O+].[C-]#N.[C-]#N.[C-]#N.[C-]#N.[C-]#N.[Fe+2].[Na+].[Na+]`, the activity change, negative = cytotoxicity in [13] is inactive: -6.91%. In addition, in [14], the Potency result is “inactive”. Also, the ratio activity, negative = inhibition in experiment [15] is inactive: 3.13%. Moreover, the activity change, negative = inhibition in experiment [16] is inactive: 155%. Besides, the activation in experiment [17] is inactive: 0.896%. In experiment [18], the activity, negative = inhibition is inactive: 0.153%. Further, in [19], the growth rescue, positive = activation is inactive: -12%.

Consider `C/C1=C2N=C(/C=C3N=C(/C(C)=C4\[N-][C@@](C)([C@H]5N=C1[C@@](C)(CCC(=O)NC[C@H](C)OP(=O)([O-])O[C@@H]1[C@H](O)[C@H](n6cnc7cc(C)c(C)cc76)O[C@@H]1CO)[C@@H]5CC(N)=O)[C@](C)(CC(N)=O)[C@H]4CCC(N)=O)[C@@](C)(CC(N)=O)[C@@H]\3CCC(N)=O)C(C)(C)[C@@H]/2CCC(N)=O.[C-]#N.[Co+3]`, for which the activity change, negative = cytotoxicity in experiment [13] is inactive: 3.39% [at 25.7 µM]. For the same molecule, the Potency in [14] is active: 15.5 µM. For the same molecule, in experiment [15], the ratio activity, negative = inhibition is inactive: -0.295% [at 17.1 µM].

For the molecule `O=[N+]([O-])[O-].[NH4+]`, the activity change, negative = cytotoxicity was inactive: -3.8% in experiment [13] and inactive: 4.71% in [12]. Further, in experiment [15], the ratio activity, negative = inhibition was inactive: -0.059%. Also, the activation is inactive: -0.087% in experiment [2], inactive: -0.637% in experiment [3], inactive: 2.01% in experiment [8] and inactive: -1.73% in experiment [11]. Also, in [4], the ratio change, negative = depolarisation was inactive: 0.513%. For the same molecule, the ratio change, negative = disruption in experiment [5] was inactive: -3.81%. The activation (TNF-alpha secretion) in [6] is inactive: 0.471%. Further, the Potency entry in experiment [7] is “inactive”. The max response in experiment [9] is inactive: 5.46%.

Turning to `Cc1c([N+](=O)[O-])cccc1[N+](=O)[O-]`, the Potency entry in [1] and in experiment [7] was “inactive” throughout. Further, the activation in [2] is inactive: -3.32% and inactive: -1.81%; in experiment [3], inactive: -0.445% and inactive: 0.197%; in experiment [8] it was inactive: -0.631% and inactive: 0.153%; in [11], inactive: 1.52% and inactive: 0.414%. Also, in experiment [4], the ratio change, negative = depolarisation was inactive: -0.891%. In addition, the ratio change, negative = disruption in experiment [5] is inactive: 0.302%. In addition, the activation (TNF-alpha secretion) in experiment [6] was inactive: 0.0994%. In experiment [9], the max response is inactive: -4.47% and inactive: -1.92%. Also, the activity change, negative = cytotoxicity in experiment [12] was inactive: 2.31%.
